{"sequences": {"note": "The chains behind the UniProt entries cited, without tags or fusion partners.", "UniProt P29475, whole entry": "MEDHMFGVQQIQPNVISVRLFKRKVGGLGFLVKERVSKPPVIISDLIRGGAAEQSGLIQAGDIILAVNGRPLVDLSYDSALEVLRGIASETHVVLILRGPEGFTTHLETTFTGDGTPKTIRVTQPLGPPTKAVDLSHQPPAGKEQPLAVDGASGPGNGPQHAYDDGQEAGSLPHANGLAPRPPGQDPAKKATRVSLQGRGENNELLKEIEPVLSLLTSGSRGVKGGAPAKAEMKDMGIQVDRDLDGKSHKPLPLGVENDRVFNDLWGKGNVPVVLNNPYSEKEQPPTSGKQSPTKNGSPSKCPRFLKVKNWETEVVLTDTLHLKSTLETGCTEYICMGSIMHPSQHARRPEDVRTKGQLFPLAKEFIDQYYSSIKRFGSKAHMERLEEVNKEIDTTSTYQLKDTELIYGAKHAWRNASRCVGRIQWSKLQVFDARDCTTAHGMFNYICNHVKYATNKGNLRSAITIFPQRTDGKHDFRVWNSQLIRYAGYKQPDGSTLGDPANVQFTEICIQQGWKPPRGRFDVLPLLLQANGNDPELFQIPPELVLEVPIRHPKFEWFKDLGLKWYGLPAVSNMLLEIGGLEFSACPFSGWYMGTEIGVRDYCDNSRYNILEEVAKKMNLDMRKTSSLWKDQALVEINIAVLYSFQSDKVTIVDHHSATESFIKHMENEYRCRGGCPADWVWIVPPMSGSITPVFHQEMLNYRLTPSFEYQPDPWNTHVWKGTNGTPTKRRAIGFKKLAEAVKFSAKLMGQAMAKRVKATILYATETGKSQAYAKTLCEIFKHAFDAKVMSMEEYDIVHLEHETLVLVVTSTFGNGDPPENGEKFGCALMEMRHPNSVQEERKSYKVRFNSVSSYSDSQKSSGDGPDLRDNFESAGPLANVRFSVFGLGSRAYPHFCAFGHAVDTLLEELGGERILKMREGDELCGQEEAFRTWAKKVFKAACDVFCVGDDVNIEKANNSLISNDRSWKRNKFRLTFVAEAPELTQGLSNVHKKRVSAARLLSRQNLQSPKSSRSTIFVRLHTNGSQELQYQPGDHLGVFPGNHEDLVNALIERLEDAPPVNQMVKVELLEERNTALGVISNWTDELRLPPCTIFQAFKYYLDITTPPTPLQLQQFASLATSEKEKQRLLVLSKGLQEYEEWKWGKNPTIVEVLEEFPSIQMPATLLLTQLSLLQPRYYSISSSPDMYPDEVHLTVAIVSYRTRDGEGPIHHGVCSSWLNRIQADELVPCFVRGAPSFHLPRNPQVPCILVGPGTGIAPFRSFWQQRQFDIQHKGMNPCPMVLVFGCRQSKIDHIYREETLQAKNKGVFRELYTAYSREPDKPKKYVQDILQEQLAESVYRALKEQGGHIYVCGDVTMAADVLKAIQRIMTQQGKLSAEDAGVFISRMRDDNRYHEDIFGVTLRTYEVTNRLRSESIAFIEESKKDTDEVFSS"}, "source": "ChEMBL document CHEMBL1150384", "about": "“Design, synthesis, and evaluation of potential inhibitors of nitric oxide synthase” (Bioorg Med Chem, 2008)", "target": "Nitric oxide synthase 1 (Homo sapiens, UniProt P29475)"}
{"compound": "CC(=N)NCCC[C@H](N)C(=O)O", "note": "[L-NIO]", "values": [{"measurement": "Ki", "result": 1700, "unit": "nM"}]}
